The values below are quoted from earlier work in paper PMC10812433.

Protein sequences, listed by entry. Tags and fused reporters are not part of them. Lines headed by an entry give the natural chain unless they say otherwise; changes in a name come on top.
UniProt P00581: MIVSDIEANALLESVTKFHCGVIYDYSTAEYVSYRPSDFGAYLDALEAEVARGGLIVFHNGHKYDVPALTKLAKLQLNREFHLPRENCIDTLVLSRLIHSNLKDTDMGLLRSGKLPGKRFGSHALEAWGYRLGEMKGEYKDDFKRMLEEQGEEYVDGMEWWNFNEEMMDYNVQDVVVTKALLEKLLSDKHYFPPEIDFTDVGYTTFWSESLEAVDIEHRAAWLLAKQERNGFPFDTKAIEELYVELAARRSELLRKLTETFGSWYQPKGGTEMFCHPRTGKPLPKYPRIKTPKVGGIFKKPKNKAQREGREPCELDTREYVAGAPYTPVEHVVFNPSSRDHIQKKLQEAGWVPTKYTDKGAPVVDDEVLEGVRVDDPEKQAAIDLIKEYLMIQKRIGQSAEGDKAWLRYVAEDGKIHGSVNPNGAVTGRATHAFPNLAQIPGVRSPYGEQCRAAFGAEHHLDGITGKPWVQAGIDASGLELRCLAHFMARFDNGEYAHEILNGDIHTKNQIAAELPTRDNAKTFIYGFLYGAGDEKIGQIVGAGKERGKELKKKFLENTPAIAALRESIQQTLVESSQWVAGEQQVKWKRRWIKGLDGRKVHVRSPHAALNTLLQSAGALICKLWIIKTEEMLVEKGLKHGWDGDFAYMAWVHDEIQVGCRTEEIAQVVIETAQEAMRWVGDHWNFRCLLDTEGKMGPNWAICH

Where “and” joins values, the source holds several entries; their conditions need not be identical. Identical values can stand only once.

In this data set the target is g5p (T7 DNA polymerase) (Escherichia phage T7) (UniProt P00581).

Turning to “thioredoxin 1 (EcoTrx1) (from UniProt P0AA25)”, the Kd was 5 nM and 2.2 nM.

By Kd is commonly meant a measure of binding affinity in units of concentration.
